From patent publication US20250367305A1, “ALBUMIN NANOCOMPOSITE COMPRISING PHYTOCHEMICAL AND COMPOSITION FOR IMPROVING MUSCLE DISEASE CONTAINING SAME” (SEOUL NATIONAL UNIVERSITY R&DB FOUNDATION, priority 2023, published 2025)

How the values were obtained:
[1] = Retention at the injection site after intramuscular injection (nuclear imaging); conditions: 0, 3, and 24 hours after injection
[2] = test system: M1-type macrophages (GLUT overexpressed); assay: Uptake of FNR648-labeled albumin in RAW cells polarized to M1; format: cell-based
Excerpt: The glycated albumin prepared in Preparation Example 1-1 was synthesized using glucose as a target ligand to selectively target GLUT (glucose transporter), which is overexpressed in M1-type macrophages.
To verify whether the albumin glycated with glucose can selectively target M1-type macrophages, RAW cells were polarized into M0 and M1 states, followed by treatment with FNR648-labeled glycated albumin (Alb-DBCO-Glc) and non-glycated albumin (Alb-DBCO).

[3] = in vivo

Albumin(11): albumin platform introduced with 11 ADIBO functional groups
retention at the injection site [1]: very high retention

glycated albumin: albumin with DBCO groups clicked with 6-azido-glucose, Preparation Example 1-1
fluorescence expression in M1 cells [2]: significantly increased | uptake in M1 macrophages compared to non-glycated albumin ([2]; FNR648 fluorescence, FIG. 6): more than fourfold higher uptake

Glc(6)-Albumin(11): albumin with 11 ADIBO groups, 6 of which were substituted with glucose
retention at the injection site [3]: very high retention

Where two headings read alike, the source gives them in different places.
